Assay results reported in PubChem BioAssay AID686940 (The Scripps Research Institute Molecular Screening Center, 2013).
This is a selection; strong and weak results do not stand in their true shares. Calls of active or inactive are those of the source.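 How the source made its calls: active means inhibition above a per-plate cutoff, mean inhibition of test wells between control levels plus 3 SD (cut at about 38% in these data); inactive means the rest.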

Amino acid sequences for entries named in this document (tags omitted). A change or cut given only in a name is not applied to a line headed by its entry.
UniProt P24468: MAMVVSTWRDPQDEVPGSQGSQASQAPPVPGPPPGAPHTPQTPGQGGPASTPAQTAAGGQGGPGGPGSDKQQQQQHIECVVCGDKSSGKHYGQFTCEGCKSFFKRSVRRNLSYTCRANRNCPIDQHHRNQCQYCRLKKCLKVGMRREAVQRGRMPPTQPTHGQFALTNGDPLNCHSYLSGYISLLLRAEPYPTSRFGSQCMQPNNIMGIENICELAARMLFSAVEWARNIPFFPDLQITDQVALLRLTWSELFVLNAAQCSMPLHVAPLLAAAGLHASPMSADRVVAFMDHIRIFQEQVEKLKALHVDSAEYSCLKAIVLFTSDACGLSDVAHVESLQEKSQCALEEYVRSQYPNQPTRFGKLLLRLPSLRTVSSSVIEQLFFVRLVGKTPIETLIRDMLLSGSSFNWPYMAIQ

Molecular target: COUP transcription factor 2 (Homo sapiens) (UniProt P24468)
Assay: COUP-TFII reporter suppression in human cells – cell-based, luciferase reporter, HEK293T, luminescence, primary screen (AID 686940);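 further: cells cotransfected with COUP-TFII expression vector driving the NGFI-A reporter; 0% = median of COUP-TF2 test wells and 100% = reporter-only cells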
Details: HEK293T NGFI-A luciferase reporter, at 8.6 µM, hits give high values

SMILES	inhibition
Cc1c2c(nc3ccccc13)SC(C(Cl)Cl)C2 (stereo not given)	inactive: -0.92%
Cc1cc(=O)[nH]c(N[N+](=O)[O-])n1	inactive: 12.8%
O=C(OC1CN2CCC1CC2)C12CC3CC(CC(C3)C1)C2 (stereo not given)	inactive: -20%
O=P1(N(CCCl)CCCl)Nc2ccccc2N1	inactive: -37.5%
O=P1(N(CCCl)CCCl)OCCCN1CCCl (stereo not given)	inactive: -0.05%
COc1cc(I)ccc1[As](=O)(O)O	inactive: 10.8%
COc1ccc2nc(NP(=O)(c3ccccc3)c3ccccc3)sc2c1	inactive: -0.54%
Nc1cccc2c([As](=O)(O)O)cccc12	inactive: -2.48%
Cc1ccc(NCCc2c([N+](=O)[O-])cc([N+](=O)[O-])cc2[N+](=O)[O-])cc1	inactive: 7.98%
CCCOP(=S)(Nc1nc(N)cc(=O)[nH]1)OCCC	inactive: -1.74%
CCOP(=O)(Nc1cccc2ccccc12)OCC	inactive: -8.3%
COc1cc(C2NCCC3(OCCO3)C2(C)C)cc(OC)c1OC (stereo not given)	inactive: 6.24%
O=C(OC1CN2CCC1CC2)c1ccc(Cl)cc1 (stereo not given)	inactive: 1.34%
CS(=O)(=O)c1ccc(Cl)c(NC(=O)COC(=O)C(O)(c2ccccc2)c2ccccc2)c1	inactive: -0.65%
COc1cc(C(=O)NCC2(N3CCOCC3)CCCCC2)cc(Cl)c1OC(C)C	inactive: 22.6%
O=[As](O)(O)c1cccnc1	inactive: 2.6%
O=[As](O)(c1cccc(O)c1)c1cccc(O)c1	inactive: 0.57%
Cc1cccc(OCC(=O)OC2CN3CCC2CC3)c1 (stereo not given)	inactive: 4.52%
NC(=O)Nc1ccc([As](=O)(O)O)cc1	inactive: -0.55%
CCOP1(=S)c2c(C)nn(CCC#N)c2N=C(c2ccc(F)cc2)N1C (stereo not given)	inactive: 12.7%
CN(C(=O)Cc1ccccc1)[C@@H]1CC[C@]2(CCCO2)C[C@H]1N1CCCC1	inactive: 2.45%
N#CCCN(C(=O)COC(=O)C(O)(c1ccccc1)c1ccccc1)c1ccc(F)cc1	inactive: 3.92%
CN(C(=O)Cc1ccc(Cl)c(Cl)c1)[C@H]1CC[C@@]2(CCCO2)C[C@@H]1N1CCCC1	inactive: 13.6%
CN(C)C(=O)c1cc([N+](=O)[O-])cc2c1-c1c(cc([N+](=O)[O-])cc1[N+](=O)[O-])C2=O	inactive: 0.07%
O=[N+]([O-])c1ccc2c(c1)nnn2O	inactive: 3.28%
O=P(Nc1nccs1)(Oc1ccccc1)Oc1ccccc1	inactive: 10.8%
CCOP1(=S)c2c(C)nn(CCC#N)c2N=C(c2ccccc2F)N1C (stereo not given)	inactive: 14.3%
Nc1ccccc1[As](=O)(O)c1ccccc1	inactive: -17.3%

SMILES	inhibition
O=C(O)COc1ccc([As](=O)(O)O)cc1[N+](=O)[O-]	inactive: 29.6%
Cc1ccc(S(=O)(=O)N(CCCN)CCCc2c(C)nc(N)[nH]c2=O)cc1	inactive: -1.21%
O=P1(Nc2ncccn2)COc2ccccc2OC1	inactive: 11.5%
Nc1cccc([As](=O)(O)c2ccccc2)c1	inactive: -13.9%
O=P1(Nc2ccc(Br)cn2)COc2ccccc2OC1	inactive: 1.09%
NS(=O)(=O)c1cccc(NC(=O)COC(=O)C(O)(c2ccccc2)c2ccccc2)c1	inactive: -9.42%
O=[As](O)(c1cccs1)c1cccs1	inactive: 0.29%
Cc1ccc(OCC(=O)OC2CN3CCC2CC3)cc1 (stereo not given)	inactive: -3.91%
CC1CCC(C(C)C)C(OP(=O)(Nc2ccccn2)c2ccccc2)C1 (stereo not given)	inactive: -1.8%
Cc1ccc(C(=O)OC2CN3CCC2CC3)cc1 (stereo not given)	inactive: 5.21%
Cc1nn(-c2ccccc2)c2c1P(=O)(N1CCOCC1)N(C)C(c1ccccc1)=N2 (stereo not given)	inactive: -3.72%
CN(C)C1(CNC(=O)c2ccc(S(C)(=O)=O)cc2)CCCCC1	inactive: -8.44%
CCCC1OP(=O)(Nc2ccccc2)OCC1CC (stereo not given)	inactive: 0.83%
O=C(/C=C/c1ccccc1)OC1CN2CCC1CC2 (stereo not given)	inactive: -13%
COc1ccccc1CNC(=O)COC(=O)C(O)(c1ccccc1)c1ccccc1	inactive: 9.71%
CN(C(=O)Cc1ccc(Cl)c(Cl)c1)C1CCCC[C@@H]1N1CCCC1 (stereo not given in full)	inactive: -5.65%
CC(C)/C=N\N=C(\N)N[N+](=O)[O-]	inactive: -2.82%
CN(C(=O)Cc1ccc(Cl)c(Cl)c1)[C@@H]1CCCC[C@H]1N1CCCC1	inactive: -8.17%
CC1(CBr)Cn2c(nc3ccccc3c2=O)S1 (stereo not given)	inactive: 13.1%
CCOP(=O)(NC(=NC(C)c1ccccc1)NC(C)c1ccccc1)OCC (stereo not given)	inactive: -5.11%
O=P1(Nc2ccccn2)COc2ccccc2OC1	inactive: 9.99%
CCC1=CC2Cc3nc4ccc(Cl)cc4c(N)c3C(C1)C2 (stereo not given)	inactive: 17.9%
CN(CCCl)Cc1cc(Cl)c(NC2=NCCN2)c(Cl)c1	inactive: 4.96%
CCOP(=O)(Nc1ccc(C)cn1)OCC	inactive: 3.91%
CC(C)(C)C(=O)NC(Sc1ncccn1)C(Cl)(Cl)Cl (stereo not given)	inactive: 9.15%
O=P1(N(CCCl)CCCl)NCCC(C(F)(F)F)O1 (stereo not given)	inactive: -8.42%
Clc1n[nH]nc1-c1nn[nH][15n]1	inactive: 0.23%
